## Apparent affinities of Ab-14 variants for a coronavirus HR2 peptide

The measurements come from Engelhart et al. 2022 (doi:10.1038/s41597-022-01779-4) through the FLAb antibody collection.

Antigen: PDVDLGDISGINAS, a 14-residue peptide of the SARS-CoV-2 spike HR2 region.

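The starting antibody came from a phage panning campaign against this peptide. In library AAYL49, one, two or three CDR residues were substituted; doubles and triples were drawn at random. The scFvs were displayed on barcoded MATa yeast, the peptide on MATalpha yeast. Mating (16 h, 30 °C) was followed by selection of diploids and sequencing of their barcodes. Scores were corrected for input abundance and mapped to Kd with protein pairs of known affinity run in the same pool. Mating was done three times.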

Parent scFv Ab-14: VH joined to VL by a (GGGGS)3 linker. Changes lie in the heavy chain CDRs alone.
VH: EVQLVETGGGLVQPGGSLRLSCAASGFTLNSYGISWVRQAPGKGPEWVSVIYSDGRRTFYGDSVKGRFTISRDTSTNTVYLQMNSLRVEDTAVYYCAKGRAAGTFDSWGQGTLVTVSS
VL: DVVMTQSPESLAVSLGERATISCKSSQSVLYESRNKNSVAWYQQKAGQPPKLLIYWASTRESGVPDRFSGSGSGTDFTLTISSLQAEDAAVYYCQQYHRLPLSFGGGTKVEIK

Each variant is given by its three heavy chain CDRs, as the data file delimits them; those of the parent are GFTLNSYGIS, VIYSDGRRTFYGDSVK, GRAAGTFDS.
All variants listed here change S107 of the VH, counted from its first residue.
Values are apparent Kd, the geometric mean of the replicates that gave a signal; lower means stronger binding.
"no signal" means that the variant was in the library but no mating with the target was seen in any replicate; the authors take this as a sign of poor binding, and no number exists.
Parent in this assay: reference entry 4.4 nM, copy in this library 13 µM (one replicate of three).

CDR-H1	CDR-H2	CDR-H3	Kd (apparent)	replicates with signal	control signals
GFTLNSYGIS	VIYSDGRRTYYMDSVK	GRAAGTFDK	2.1 µM	3 of 3	1 of 9
GFTLNSYGIS	VIYSDGRRTFIGDSVK	QRAAGTFDH	no signal	0 of 3	1 of 9
GFTLNSYGIS	VIYSDGRRTFYGDSVY	GRAMGTFDD	55 nM	3 of 3	0 of 9
GFTLNSYGIS	VIYSDGRRTFYGDSVK	GRAAGTYDK	no signal	0 of 3	0 of 9
GFTLNSYGIS	VIYSDGRRWFYGDSVK	SRAAGTFDE	870 µM	1 of 3	1 of 9
GFTLNSYGPS	VIQSDGRRTFYGDSVK	GRAAGTFDQ	45 µM	1 of 3	4 of 9
GFTLNSYGIQ	VIYSDTRRTFYGDSVK	GRAAGTFDM	no signal	0 of 3	1 of 9
GFTLNSYGIS	VIYSDGRRTFYGKSVK	GRAAGQFDF	no signal	0 of 3	1 of 9
GFTLNSYGPS	VIYSDGRRTFYGHSVK	GRAAGTFDL	1.1 µM	3 of 3	0 of 9
GFTLNSYGIS	VIYSDGRRTFVGDSVK	GRTAGTFDD	8.6 nM	3 of 3	0 of 9
GFTLNSYGIS	VIYSDGRRTFYGDSVK	GRAPGTFDI	38 nM	3 of 3	4 of 9
GFTLNSYGIS	VIYGDGRRTFYGDSVK	GRAAGTFDL	36 nM	3 of 3	2 of 9
GFTLNSYGIS	VIYSDGRRTFYDDSVK	GRAAGTFDP	no signal	0 of 3	0 of 9
GFTLNSYGIS	VIYSDGRRTFYGDSVK	LRAAGTFDT	no signal	0 of 3	2 of 9
GNTLNSYGIS	VIYSDGRRTFYGDSVK	GRANGTFDM	64 µM	2 of 3	1 of 9
GFTLNRYSIS	VIYSDGRRTFYGDSVK	GRAAGTFDH	no signal	0 of 3	0 of 9
GFTLNSSGIS	VIYSDGRRTFYGDSVK	GRMAGTFDA	13 µM	3 of 3	2 of 9
GFTLNSYGIS	VIYSDGRATFYGDSVK	NRAAGTFDW	130 µM	1 of 3	4 of 9
GTTLNSYGIS	VIYDDGRRTFYGDSVK	GRAAGTFDH	3.5 µM	1 of 3	2 of 9
GFTLNSYGKG	VIYSDGRRTFYGDSVK	GRAAGTFDD	9.1 µM	2 of 3	3 of 9
GFTLNKYGIS	VIYSDGRRTFYGDSVK	GRAAGTFYK	no signal	0 of 3	0 of 9
GFTLNSYGIS	VVYSDGRRTFYGDSVK	GRAAGTFGR	no signal	0 of 3	0 of 9
GFTLNSYGIS	VIYSDGRRTFYGCSVK	GRAMGTFDR	no signal	0 of 3	0 of 9
GFTLNSYGIS	VIYSDRRRTFYGDSVK	GRAAGTFDR	no signal	0 of 3	0 of 9
GFTLISYGIS	WIYSDGRRTFYGDSVK	GRAAGTFDE	no signal	0 of 3	0 of 9
GFTLNSYVIS	VIYSDGRITFYGDSVK	GRAAGTFDF	no signal	0 of 3	2 of 9
GFTLNSYGIS	VYYSDGRRTFYGYSVK	GRAAGTFDN	17 µM	1 of 3	3 of 9
GFTLNSYGIS	VIYSDGVRTFYGDSVK	GRAAGTLDF	91 nM	3 of 3	3 of 9
GFTLNSYGIS	VCYSDLRRTFYGDSVK	GRAAGTFDY	no signal	0 of 3	2 of 9
GFTLKSYGIS	VIYSDGRRTFYGDCVK	GRAAGTFDG	480 nM	3 of 3	1 of 9
GFTLNSPGIS	VIYSDGRRTFYGDSVK	GRAAGTFDT	35 nM	3 of 3	3 of 9
GFTLNSYGLS	VIYSDGRRTFYGDSVQ	GRAAGTFDG	no signal	0 of 3	2 of 9
GFTLNSYKIS	VIYSDGRRTFYGDSVK	GRACGTFDW	no signal	0 of 3	0 of 9
GFTLNSYGIS	VIYSDGDRTFYGDSVK	GRAADTFDQ	no signal	0 of 3	0 of 9
GFFLNSYGIS	VNYSDGRRTFYGDSVK	GRAAGTFDW	1.0 mM	2 of 3	4 of 9
GSPLNSYGIS	VIYSDGRRTFYGDSVK	GRAAGTFDK	no signal	0 of 3	1 of 9
GFTLNSYGIS	VIYSDGRRTFYGDSVK	GRAAGTMDM	6.3 µM	3 of 3	3 of 9
GFPLNSYGIS	VIYSDGRRTFYGDSVK	IRAAGTFDC	no signal	0 of 3	1 of 9
GFTQNSYGIS	VIYSDGRRTAYGDSVK	GRAAGTFDL	59 nM	3 of 3	0 of 9
GFTYNSYGIS	VIYSDGRRTFYGVSVK	GRAAGTFDM	110 µM	3 of 3	6 of 9
GFTLNSYGIS	VIYSDGRRTFYGCSVK	GHAAGTFDQ	1.6 µM	3 of 3	0 of 9
GFTLNSYMIS	VIYIDGRRTFYGDSVK	GRAAGTFDA	no signal	0 of 3	0 of 9
GFTLNSYGIS	LIYSDGRRTFYGYSVK	GRAAGTFDI	170 µM	1 of 3	5 of 9
GFTYNSYGIS	VISSDGRRTFYGDSVK	GRAAGTFDN	no signal	0 of 3	0 of 9
GFTLNSYGIS	VGYSDGRRTFYGDIVK	GRAAGTFDN	6.9 µM	3 of 3	5 of 9
GFTLNSYGIN	VIYSDGRRTFYGDSVK	GDAAGTFDY	no signal	0 of 3	0 of 9
GFHLNSYGIS	VIYSDGRRTFYGDSVK	GCAAGTFDV	570 nM	3 of 3	4 of 9
GFTLNSYGWS	VIYSDGRRTFYGDSVK	GRAAGTFDH	no signal	0 of 3	0 of 9
GFTLHSYGIS	VIASDGRRTFYGDSVK	GRAAGTFDL	no signal	0 of 3	1 of 9
GFTLNSYGIS	VIYSDVKRTFYGDSVK	GRAAGTFDM	4.7 µM	1 of 3	3 of 9
GFTLNRYGIS	VIYSDGRRTFYGDSVK	GRWAGTFDI	6.5 nM	3 of 3	0 of 9
GFTLNSYGPS	VIYSDGRFTFYGDSVK	GRAAGTFDN	550 µM	1 of 3	0 of 9
GFTLNSYHIS	VIFSDGRRTFYGDSVK	GRAAGTFDA	15 µM	1 of 3	1 of 9
GFTLNSYGIS	VIYSDGRRTFVGDSVK	GRANGTFDI	no signal	0 of 3	0 of 9
GFTLNSYGIS	VIYSDGRRTFYDDSVK	GRAAGTFDF	180 nM	3 of 3	1 of 9
GFTLNSYGIH	VIYSDGRRTFYGDSVK	GRAAGLFDP	11 nM	3 of 3	1 of 9
DFTLNSYGIS	VIYSDGRRTFYGSSVK	GRAAGTFDF	no signal	0 of 3	0 of 9
GFIENSYGIS	VIYSDGRRTFYGDSVK	GRAAGTFDL	no signal	0 of 3	0 of 9
GFTLNSYGIS	VIDSDGRRTFYGDSVK	GRAAGCFDR	no signal	0 of 3	1 of 9
GFTLNSYGIS	VIYSDKRRFFYGDSVK	GRAAGTFDC	no signal	0 of 3	1 of 9
GFTLNSYLIS	VIYSDGRRKFYGDSVK	GRAAGTFDI	120 µM	2 of 3	3 of 9
GFTLNSYGDS	VIYSDGRRTFYGDSVK	GRAARTFDL	no signal	0 of 3	1 of 9

5 of these entries, quoted again:

CDR-H1,CDR-H2,CDR-H3,Kd (apparent),replicates with signal,control signals
GFTLNSYGLS,VIYSDGRRTFYGDSVQ,GRAAGTFDG,no signal,0 of 3,2 of 9
GFTLNSYGIS,VIYSDGRRTFYGCSVK,GHAAGTFDQ,1.6 µM,3 of 3,0 of 9
GFTLKSYGIS,VIYSDGRRTFYGDCVK,GRAAGTFDG,480 nM,3 of 3,1 of 9
GFTLNSYGIS,VIYSDVKRTFYGDSVK,GRAAGTFDM,4.7 µM,1 of 3,3 of 9
GFTLNSYGIQ,VIYSDTRRTFYGDSVK,GRAAGTFDM,no signal,0 of 3,1 of 9

Three control strains display no target. For library AAYL49, 15% of the pairings with them gave a signal, with a median of 11 µM and one signal in twenty below 680 nM, so weak values seen in few replicates may be background. Also given: how often the same scFv was detected with the empty control strains.